Test results taken from patent publication US8822513B2, “Compounds for treatment of cancer” (GTX, Inc., priority 2010, dated 2014).

Key:
PC-3 xenografts = assay: In vivo efficacy, PC-3 prostate tumor xenograft in nude mice; details: mouse, iv, 10 mg/kg
PC-3/TxR cells = assay: SRB cytotoxicity assay, paclitaxel-resistant PC-3/TxR; details: Table 15; data in parentheses; IC50 values in PC-3 and PC-3/TxR compared

Structure (SMILES) | TGI (PC-3 xenografts) [%] | Resistance factor PC-3/TxR vs PC-3 (PC-3/TxR cells)
CC(=O)O[C@@]12CO[C@@H]1C[C@H](O)[C@@]1(C)C(=O)[C@H](O)C3=C(C)[C@@H](OC(=O)[C@H](O)[C@@H](NC(=O)OC(C)(C)C)c4ccccc4)C[C@@](O)([C@@H](OC(=O)c4ccccc4)[C@H]21)C3(C)C [Docetaxel, reference compound] | 84 | –
COc1cc(C(=O)c2csc(Nc3ccc4[nH]ccc4c3)n2)cc(OC)c1OC [compound 55, (2-(1H-indol-5-yl amino)thiazol-4-yl)(3,4,5-trimethoxyphenyl)methanone] | – | 0.4
